The target of the experiment is PTH receptor (PTHR1) (human) (UniProt Q03431). Briefly: cell-based or functional assay.

Sequences of proteins named here, by UniProt entry; tags and fusion partners are left off. Residues count along the entry.
UniProt Q03431, 27-593: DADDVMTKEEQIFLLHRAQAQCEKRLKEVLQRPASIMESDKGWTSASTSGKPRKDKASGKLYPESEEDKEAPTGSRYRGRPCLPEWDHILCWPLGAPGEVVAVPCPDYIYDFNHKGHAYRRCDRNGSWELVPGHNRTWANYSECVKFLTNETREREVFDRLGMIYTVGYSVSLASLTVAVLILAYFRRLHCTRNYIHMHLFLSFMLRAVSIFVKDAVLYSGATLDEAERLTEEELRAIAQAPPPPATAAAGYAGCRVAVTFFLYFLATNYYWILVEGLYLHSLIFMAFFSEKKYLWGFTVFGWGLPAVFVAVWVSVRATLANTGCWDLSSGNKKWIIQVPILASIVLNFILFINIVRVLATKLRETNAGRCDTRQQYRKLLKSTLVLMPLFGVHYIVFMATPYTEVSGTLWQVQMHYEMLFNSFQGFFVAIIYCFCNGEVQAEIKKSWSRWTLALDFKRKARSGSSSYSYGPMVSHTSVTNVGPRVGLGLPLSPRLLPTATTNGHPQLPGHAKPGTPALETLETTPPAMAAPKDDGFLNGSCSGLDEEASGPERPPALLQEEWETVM

As to “human PTHrP (coded sample EU-285) (from UniProt P12272 37-70) (ligand)”, the Maximal response was determined as 100%.

Values taken from US20260248925A1.
